# Results from BindingDB's records for doi:10.1016/j.ejmech.2018.01.067 (Hefei University of Technology, 2018).
# Amino acid sequences for entries named in this document (tags omitted). Residues count along the entry.
# UniProt P08709, 61-212 limits assumed: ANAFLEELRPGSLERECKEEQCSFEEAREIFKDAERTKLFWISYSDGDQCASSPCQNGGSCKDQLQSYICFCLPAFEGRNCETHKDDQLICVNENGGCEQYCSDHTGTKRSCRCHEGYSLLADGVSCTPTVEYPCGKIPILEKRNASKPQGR
# UniProt P08709, 213-466 limits assumed: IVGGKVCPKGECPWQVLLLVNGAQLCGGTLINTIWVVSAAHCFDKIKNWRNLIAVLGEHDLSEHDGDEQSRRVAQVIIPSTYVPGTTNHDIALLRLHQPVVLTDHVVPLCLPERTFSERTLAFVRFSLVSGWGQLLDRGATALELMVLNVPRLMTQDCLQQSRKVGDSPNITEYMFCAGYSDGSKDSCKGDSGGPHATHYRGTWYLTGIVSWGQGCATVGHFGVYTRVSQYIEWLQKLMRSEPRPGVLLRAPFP
# UniProt P13726, 33-295 limits assumed: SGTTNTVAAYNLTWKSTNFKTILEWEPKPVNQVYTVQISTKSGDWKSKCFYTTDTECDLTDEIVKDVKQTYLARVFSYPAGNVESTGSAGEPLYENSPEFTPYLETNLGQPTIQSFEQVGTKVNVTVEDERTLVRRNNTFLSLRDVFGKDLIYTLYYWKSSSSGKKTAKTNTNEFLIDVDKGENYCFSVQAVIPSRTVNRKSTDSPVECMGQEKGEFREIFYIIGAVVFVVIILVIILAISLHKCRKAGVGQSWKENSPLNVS
# Molecular target: Coagulation factor VII/Tissue factor (Homo sapiens, UniProt P08709+P13726)
structure (smiles),measurement,value
"CC(C)Nc1ccc(-c2cccc(N)c2)c(CC(=O)NCc2ccc(C(=N)N)cc2)c1F [2-[3-Amino-3-fluoro-4-(isopropylamino)-1,1-biphenyl-2-yl]-N-{4-[amino(imino)methyl]benzyl}acetamide]",pIC50,6.47

# pIC50: −log10 of the molar value.
